Reference: patent US10308636B2, “Aromatic heterocyclic compound” (MITSUBISHI TANABE PHARMA CORPORATION, priority 2012, dated 2019)

System: Male KK-Ay mice
Assay: Body weight gain-suppressing, hypoglycemic and plasma insulin-decreasing action in KK-Ay mouse
Details: 30 mg/kg/day oral once a day for 2 weeks, KK-Ay mice on high fat diet; for Hypoglycemic action (30 mg/kg/day): blood sugar after overnight fast; for Hypoglycemic action (30 mg/kg/day) / Plasma insulin-decreasing action (30 mg/kg/day): relative to solvent control; for Plasma insulin-decreasing action (30 mg/kg/day): plasma insulin after overnight fast; for Body weight gain-suppressing action (30 mg/kg/day): relative to body weight gain of solvent control as 100%

| Structure (SMILES) | Hypoglycemic action (30 mg/kg/day) [%] | Plasma insulin-decreasing action (30 mg/kg/day) [%] | Body weight gain-suppressing action (30 mg/kg/day) [%] |
| --- | --- | --- | --- |
| CC(C)(COc1ccc(-c2ccc(-c3nc(C(F)(F)F)n[nH]3)cc2)cn1)C(=O)O | 26 | 21 | 41 |
| O=C(O)c1cccc(OCC2CCN(c3ccc(-c4nc(C(F)(F)F)c[nH]4)cn3)CC2)c1 | 36 | 53 | 21 |
